Data reported in patent US20030166645A1, “Novel nitrofuran-containing heterocyclic compounds and uses thereof” (priority 2001, published 2003).

System: Bacteroides thetaiotaomicron
Format: cell-based

Q: With CCC[C@@H]1C[C@@H](C(=O)N[C@@H]([C@H]2O[C@H](SC)[C@H](O)[C@@H](O)[C@H]2O)[C@H](C)Cl)N(C)C1 [Clindamycin] as the compound, how does the MIC Bacteroides thetaiotaomicron read?
A: 0.25 mg/L (≈ 0.588 µM)

In brackets after ≈: the same amount, converted by molar mass.
